Test results taken from patent publication US20250041279A1, “THERAPEUTIC MEDICINE FOR HEART DISEASE OR SKELETAL MUSCLE DISEASE” (SHIONOGI & CO., LTD., priority 2021, published 2025).

Tests used:
[1] = Metabolic stability test, human liver microsomes; type: in vitro ADME; conditions: 37° C., 30 minutes, NADPH
[2] = Metabolic stability test, rat; type: in vitro ADME; conditions: 30 minutes

| Compound | Remaining amount of compound, Human [1] [%] | Remaining amount of compound, Rat [2] [%] |
| --- | --- | --- |
| CC(=O)N[C@@H](C)CO[C@H]1CC[C@H](Oc2nc3c(F)cc(OCC(F)F)c(F)c3n2C)CC1 | 94.8 | 78 |
| CC(=O)N[C@@H](C)C(F)(F)C[C@H]1CC[C@H](Oc2nc3c(F)cc(OCC(F)F)c(F)c3n2C)CO1 | 93.2 | 74 |
